From patent publication US10328135B2, “Method of obtaining cytolytic T cells by using mutant tumor epitopes” (priority 2010, dated 2019)

Protein sequences, listed by entry. Tags and fused reporters are not part of them. Lines headed by an entry give the natural chain unless they say otherwise; changes in a name come on top.
UniProt Q16655: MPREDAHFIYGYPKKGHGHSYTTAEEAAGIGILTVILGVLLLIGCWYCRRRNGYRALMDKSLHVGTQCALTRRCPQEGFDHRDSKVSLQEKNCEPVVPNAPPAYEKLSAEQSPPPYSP

How the values were obtained:
Assay type in all cases: cell-based, human
[1] = test system: T2 cells pulsed with 1 μM of MART-126-35; assay: In vitro cytotoxicity assay (51Cr release) by polyclonal CTL lines generated with analog peptides; target T2 pulsed with MART-126-35 (M26)
Procedure: (§1) Following in vitro peptide stimulation of HLA-A2^+ PBMC from melanoma patients MelPt-B, MelPt-C, MelPt-D, MelPt-F and a healthy donor (Healthy-1) MART-126-35 tetramer and CD8 positive cells were sorted and isolated on BD FACSaria. Isolated cells were replicated using 30 ng/ml anti-CD3 antibody (OKT3) and IL-2 at 50 U/ml in the presence of irradiated feeder PBMC and LCL for 2 weeks. IL-2 was replenished every 2-3 days. Following the stimulation, cultures were stained for the generation of MART-126-35 tetramer and CD8 positive cell populations. The polyclonal cell lines were tested for lytic activity and TCR Vβ usage (MelPt-C only), as described in Example 6.
(§2) Target cells were labeled with 100 μCi of ^51Cr and co-cultured with effector cells for 4 hours at 37° C. plus 5% CO2. Targets were melanoma cell lines A375 (HLA-A2^+/NY-ESO-1^+) and Mel 526 (HLA-A2^+/MART-1^+), and T2 cells pulsed with 1 μM of MART-126-35 (positive control) or NY-ESO-1157-165 (negative control). […] Assays were performed in triplicate at a 50:1, 25:1 or 12.5:1 effector to target ratio. Released ^51Cr was measured with a gamma scintillation counter and percent specific lysis was determined by using the formula: percent specific release=(experimental release-spontaneous release)/(maximum release-spontaneous release).
(§3) These cell lines were screened for reactivity to unmodified MART-126-35 peptide pulsed HLA-A2 positive targets and to HLA-A2/MART-1 positive tumor targets at varying effector to target ratios in a standard chromium release assay (Table 10).
(§4) “ND” is not done. T2 is a TAP-deficient cell line that expresses peptide-unbound HLA-A2 molecules unless pulsed extracellularly. Here, T2 was pulsed with NYESO-1157-165 unless indicated otherwise. M26 is an abbreviation for the unmodified MART-126-35 peptide. Numbers represent the percentage specific lysis obtained from each target. T375 is a HLA-A2 positive/MART-1 negative cell line.

[2] = test system: T2 cells pulsed with NY-ESO-1157-165; assay: In vitro cytotoxicity assay (51Cr release) by polyclonal CTL lines generated with analog peptides; target T2 pulsed with NY-ESO-1157-165 (negative control); details: target T2 (pulsed with NYESO-1157-165)
Procedure: as §1, §2, §3, §4

[3] = test system: Mel 526 (HLA-A2+/MART-1+) melanoma cell line; assay: In vitro cytotoxicity assay (51Cr release) by polyclonal CTL lines generated with analog peptides; target Mel 526; details: target Mel526
Procedure: as §1, §2, §3, §4

[4] = test system: A375 (HLA-A2+/NY-ESO-1+) melanoma cell line; assay: In vitro cytotoxicity assay (51Cr release) by polyclonal CTL lines generated with analog peptides; target A375
Procedure: as §1, §2, §3, §4

PBMC (CD-8+ population) = assay: PBMC stimulation with NY-ESO-1157-165 peptides and HLA-A2/NY-ESO tetramer/anti-CD8 staining (flow cytometry)
Procedure: FIG. 7. […] Following a 1-week primary and 1-week secondary peptide stimulation (Week 2), and an additional week (Week 3), cultures were stained with FITC-labeled anti-CD8 antibody and APC-labeled HLA-A2/NY-ESO and analyzed by flow cytometry. Two peptides were tested, NY-ESO-1157-165 (SEQ ID NO:366) wild-type, and NY-ESO-1157-170 (V) (SEQ ID NO:376).
The NY-ESO-1157-165 C165V APL SEQ ID NO:376 was compared to wild-type NY-ESO-I157-165 SEQ ID NO:366 in effectively producing CTL from PBMC.

[5] = CTL line from Healthy1, E/T 12.5
[6] = CTL line from MelPt-B, E/T 12.5
[7] = CTL line from MelPt-C, E/T 12.5
[8] = CTL line from MelPt-D, E/T 12.5

MART-126-35E26S (SAAGIGILTV; UniProt Q16655 26-35, looked up, variant E26S)
Percentage Specific Lysis from polyclonal CTL lines generated with the indicated peptide [1, 5]: 18% | Percentage Specific Lysis from polyclonal CTL lines generated with the indicated peptide ([1]; CTL line from Healthy1, E/T 25): 26% | Percentage Specific Lysis from polyclonal CTL lines generated with the indicated peptide ([1]; CTL line from Healthy1, E/T 50): 34% | Percentage Specific Lysis from polyclonal CTL lines generated with the indicated peptide [1, 6]: 21% | Percentage Specific Lysis from polyclonal CTL lines generated with the indicated peptide ([1]; CTL line from MelPt-B, E/T 25): 31% | Percentage Specific Lysis from polyclonal CTL lines generated with the indicated peptide ([1]; CTL line from MelPt-B, E/T 50): 40% | Percentage Specific Lysis from polyclonal CTL lines generated with the indicated peptide [1, 7]: 54% | Percentage Specific Lysis from polyclonal CTL lines generated with the indicated peptide ([1]; CTL line from MelPt-C, E/T 25): 66% | Percentage Specific Lysis from polyclonal CTL lines generated with the indicated peptide ([1]; CTL line from MelPt-C, E/T 50): 87% | Percentage Specific Lysis from polyclonal CTL lines generated with the indicated peptide [1, 8]: 54% | Percentage Specific Lysis from polyclonal CTL lines generated with the indicated peptide ([1]; CTL line from MelPt-D, E/T 25): 65% | Percentage Specific Lysis from polyclonal CTL lines generated with the indicated peptide ([1]; CTL line from MelPt-D, E/T 50): 87% | Percentage Specific Lysis from polyclonal CTL lines generated with the indicated peptide [2, 5]: 0% | Percentage Specific Lysis from polyclonal CTL lines generated with the indicated peptide ([2]; CTL line from Healthy1, E/T 25): 0% | Percentage Specific Lysis from polyclonal CTL lines generated with the indicated peptide ([2]; CTL line from Healthy1, E/T 50): 0% | Percentage Specific Lysis from polyclonal CTL lines generated with the indicated peptide [2, 6]: 2% | Percentage Specific Lysis from polyclonal CTL lines generated with the indicated peptide ([2]; CTL line from MelPt-B, E/T 25): 0% | Percentage Specific Lysis from polyclonal CTL lines generated with the indicated peptide ([2]; CTL line from MelPt-B, E/T 50): 0^c % | Percentage Specific Lysis from polyclonal CTL lines generated with the indicated peptide [2, 7]: 1% | Percentage Specific Lysis from polyclonal CTL lines generated with the indicated peptide ([2]; CTL line from MelPt-C, E/T 25): 7% | Percentage Specific Lysis from polyclonal CTL lines generated with the indicated peptide ([2]; CTL line from MelPt-C, E/T 50): 2% | Percentage Specific Lysis from polyclonal CTL lines generated with the indicated peptide [2, 8]: 1% | Percentage Specific Lysis from polyclonal CTL lines generated with the indicated peptide ([2]; CTL line from MelPt-D, E/T 25): 8% | Percentage Specific Lysis from polyclonal CTL lines generated with the indicated peptide ([2]; CTL line from MelPt-D, E/T 50): 3% | Percentage Specific Lysis from polyclonal CTL lines generated with the indicated peptide [3, 5]: 10% | Percentage Specific Lysis from polyclonal CTL lines generated with the indicated peptide ([3]; CTL line from Healthy1, E/T 25): 15% | Percentage Specific Lysis from polyclonal CTL lines generated with the indicated peptide ([3]; CTL line from Healthy1, E/T 50): 28% | Percentage Specific Lysis from polyclonal CTL lines generated with the indicated peptide [3, 6]: 30% | Percentage Specific Lysis from polyclonal CTL lines generated with the indicated peptide ([3]; CTL line from MelPt-B, E/T 25): 45% | Percentage Specific Lysis from polyclonal CTL lines generated with the indicated peptide ([3]; CTL line from MelPt-B, E/T 50): 58% | Percentage Specific Lysis from polyclonal CTL lines generated with the indicated peptide [3, 7]: 25% | Percentage Specific Lysis from polyclonal CTL lines generated with the indicated peptide ([3]; CTL line from MelPt-C, E/T 25): 32% | Percentage Specific Lysis from polyclonal CTL lines generated with the indicated peptide ([3]; CTL line from MelPt-C, E/T 50): 41% | Percentage Specific Lysis from polyclonal CTL lines generated with the indicated peptide [3, 8]: 25% | Percentage Specific Lysis from polyclonal CTL lines generated with the indicated peptide ([3]; CTL line from MelPt-D, E/T 25): 32% | Percentage Specific Lysis from polyclonal CTL lines generated with the indicated peptide ([3]; CTL line from MelPt-D, E/T 50): 41% | Percentage Specific Lysis from polyclonal CTL lines generated with the indicated peptide [4, 5]: 8% | Percentage Specific Lysis from polyclonal CTL lines generated with the indicated peptide ([4]; CTL line from Healthy1, E/T 25): 5% | Percentage Specific Lysis from polyclonal CTL lines generated with the indicated peptide ([4]; CTL line from Healthy1, E/T 50): 9% | Percentage Specific Lysis from polyclonal CTL lines generated with the indicated peptide [4, 6]: 8% | Percentage Specific Lysis from polyclonal CTL lines generated with the indicated peptide ([4]; CTL line from MelPt-B, E/T 25): 4% | Percentage Specific Lysis from polyclonal CTL lines generated with the indicated peptide ([4]; CTL line from MelPt-B, E/T 50): 6% | Percentage Specific Lysis from polyclonal CTL lines generated with the indicated peptide [4, 7]: 2% | Percentage Specific Lysis from polyclonal CTL lines generated with the indicated peptide ([4]; CTL line from MelPt-C, E/T 25): 5% | Percentage Specific Lysis from polyclonal CTL lines generated with the indicated peptide ([4]; CTL line from MelPt-C, E/T 50): 8% | Percentage Specific Lysis from polyclonal CTL lines generated with the indicated peptide [4, 8]: 6% | Percentage Specific Lysis from polyclonal CTL lines generated with the indicated peptide ([4]; CTL line from MelPt-D, E/T 25): 7% | Percentage Specific Lysis from polyclonal CTL lines generated with the indicated peptide ([4]; CTL line from MelPt-D, E/T 50): 8%

NY-ESO-1157-165 C165V: NY-ESO-1 157-165 APL with C165V substitution (SLLMWITQVF)
Avidity to a CD-8+ population compared with the wild type sequence (PBMC (CD-8+ population); CTL from PBMC, FIG. 7): higher avidity than the wild type sequence | Generation of specific CTL (CD8 / HLA-A2/NY-ESO tetramer) compared with wild type peptide (PBMC (CD-8+ population); Week 2 and Week 3, FIG. 7): better than the wild type peptide

Marks after values point to notes of the source that are not given here.
